{"source": "paper PMC11178545", "about": "“Alkynyl nicotinamides show antileukemic activity in drug-resistant acute myeloid leukemia” (The Journal of Clinical Investigation, 2024)", "key": {"[1]": {"tested_on": "BaF3 cells expressing FLT3ITD-D835Y", "test": "BaF3 proliferation, colorimetric WST-1 assay", "conditions": "BaF3/FLT3 ITD-D835Y, 48 hours, replicates"}, "[2]": {"tested_on": "BaF3 cells expressing FLT3ITD", "test": "BaF3 proliferation, colorimetric WST-1 assay", "format": "cell-based, murine", "conditions": "BaF3/FLT3 ITD, 48 hours, replicates"}, "[3]": {"conditions": "concentration 0.016 (unit not given)"}, "[4]": {"conditions": "concentration 0.08 (unit not given)"}}, "note": "Several values for one entry are separate records, joined by “and”; a condition that tells them apart may be missing. Equal entries are not always repeated."}
{"smiles": "CCc1nc(C(N)=O)c(Nc2ccc(N3CCC(N4CCN(C)CC4)CC3)c(OC)c2)nc1NC1CCOCC1", "note": "[Gilteritinib]", "values": [{"measurement": "proliferation, colorimetric assay", "setting": "[1]; [3]", "value": 99.5227}, {"measurement": "proliferation, colorimetric assay", "setting": "[1]; [4]", "value": "99.6691 and 103.987"}, {"measurement": "proliferation, colorimetric assay", "setting": "[1]; concentration 0.4 (unit not given)", "value": "99.0876 and 95.701 and 107.804"}, {"measurement": "proliferation, colorimetric assay", "setting": "[2]; [3]", "value": 103.895}, {"measurement": "proliferation, colorimetric assay", "setting": "[2]; [4]", "value": "108.033 and 107.958"}]}
